Results on one compound are retold here after patent publication US20040127511A1 (Pharmacia Corporation, priority 2002, published 2004).

Sequences of proteins named here, by UniProt entry; tags and fusion partners are left off.
UniProt P49137, whole entry, species assumed: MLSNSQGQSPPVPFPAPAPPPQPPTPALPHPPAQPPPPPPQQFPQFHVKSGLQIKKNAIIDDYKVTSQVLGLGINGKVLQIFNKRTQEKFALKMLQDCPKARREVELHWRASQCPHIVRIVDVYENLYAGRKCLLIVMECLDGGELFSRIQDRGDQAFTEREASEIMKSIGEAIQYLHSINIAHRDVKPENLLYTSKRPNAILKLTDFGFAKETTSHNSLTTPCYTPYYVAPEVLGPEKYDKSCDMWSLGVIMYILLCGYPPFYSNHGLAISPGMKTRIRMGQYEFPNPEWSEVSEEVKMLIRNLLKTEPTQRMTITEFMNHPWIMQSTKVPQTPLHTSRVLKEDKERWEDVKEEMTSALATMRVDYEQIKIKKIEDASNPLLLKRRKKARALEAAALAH

The pIC50 is the IC50 on a negative log10 scale, so that one unit is a factor of ten.

pIC50: −log10 of the molar value.

This assay deals with MAPKAPK2 (Homo sapiens, UniProt P49137). The format is biochemical. The conditions noted are these: HSP-peptide substrate, 0.03 mM ATP, 2% DMSO; read-out: MK-2 Avg. IC50.

For `N#Cc1c(N)nc2c(c1N)Cc1ccccc1S2` [No. 83, 2-amino-4-(butylamino)-7,8-dimethoxy-5H-chromeno[2,3-b]pyridine-3-carbonitrile], the pIC50 was no more than 3.70.
